Earlier results in publication PMC12673578 (Molecular Pharmaceutics, 2025).

Tested on: CES1 G143E variant
Settings: literature value, cited from earlier work

COC(=O)[C@H](c1ccccc1Cl)N1CCc2sccc2C1 [clopidogrel]
Greater platelet aggregation inhibition in G143E carriers relative to noncarriers (CES1 G143E allele carriers): 24% | Higher concentrations of the active metabolite in G143E carriers relative to noncarriers (CES1 G143E allele carriers): 50% | Lower AUC ratio of CCA to clopidogrel in G143E carriers (second cited study): 53%
